# Ab-95 light chain CDR variants: yeast mating affinities

Reference: Engelhart et al. 2022, doi:10.1038/s41597-022-01779-4. File: FLAb, binding data.

Target: peptide PDVDLGDISGINAS, taken from heptad repeat 2 (HR2) of SARS-CoV-2 spike.

The variants keep the heavy chain, the linker and the frameworks of Ab-95 (scFv order VH, the linker GGGGSGGGGSGGGGS, VL).
VH: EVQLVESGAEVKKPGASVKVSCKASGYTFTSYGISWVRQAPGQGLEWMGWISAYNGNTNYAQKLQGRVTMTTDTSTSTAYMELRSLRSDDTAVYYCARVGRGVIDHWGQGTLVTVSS
VL: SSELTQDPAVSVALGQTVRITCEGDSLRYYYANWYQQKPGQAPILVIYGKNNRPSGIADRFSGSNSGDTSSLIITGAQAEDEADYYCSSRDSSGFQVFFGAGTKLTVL

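The library (AAYL52) carries one to three amino acid substitutions per variant, with no insertions or deletions. The scFvs were displayed on barcoded MATa yeast, the peptide on MATalpha yeast. After mating in shaken culture at 30 °C for 16 h, diploids were selected and their barcode pairs sequenced. The ratio of observed to expected reads was calibrated, replicate by replicate, on BCL2-family standards whose Kd was known from biolayer interferometry. The assay was run in three technical replicates.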

The parent's light chain CDRs are EGDSLRYYYAN, GKNNRPS, SSRDSSGFQVF; each variant's own CDRs replace them letter for letter. Affinities are written as log10 Kd with Kd in nM; a lower number is a better binder. A pair that was not seen in that replicate is written "nd"; this usually means weak binding, but a binder can also be missed. As a blank, each scFv also met three strains without target: over library AAYL52, 28% of these pairings were detected, typically at 3.91 and seldom below 2.90. The control count says in how many pairings with the empty strains this scFv gave a signal, with their mean in brackets.

CDR-L1 | CDR-L2 | CDR-L3 | log10 Kd, replicates | signal with controls
KGDSLRYYYAN | GKNNRPS | SSRDSKGFQVF | 2.04 2.08 1.57 | 3 of 9 (3.88)
EGDSLRYYYAN | SKNNRPS | SSRDSSGFQVM | 2.78 3.55 nd | 1 of 9 (3.07)
EGDSLRYVYAN | GKNNFPS | SSRDSSRFQVF | 3.82 3.19 4.75 | 6 of 9 (4.12)
EGDSIRYYYAN | GKNNRPS | PSRDSSGGQVF | 3.47 3.67 3.51 | 0 of 9
EGDSLMYYYAN | GKNNRPN | SSRFSSGFQVF | 4.52 nd nd | 2 of 9 (3.82)
EGNSLRYYYAN | GKTNRPS | LSRDSSGFQVF | 4.04 nd nd | 1 of 9 (2.98)
EGDSLRYYYAN | GKNNRFS | SSRDSSCFQVF | 3.07 3.56 2.89 | 4 of 9 (3.51)
EGDSLRYYYAN | DKNNRPI | SSRDSMGFQVF | 3.98 nd nd | 3 of 9 (3.67)
EGDSLRYYYAE | GKNNRPS | SSRDSSGWQVF | nd nd nd | 4 of 9 (4.62)
EIDSLRYYYAN | GKNNRPS | SSRDKSGFPVF | 4.58 4.39 3.23 | 4 of 9 (3.67)
EGDSLRYYYDN | FKNNRWS | SSRDSSGFQVF | nd nd 4.10 | 1 of 9 (3.99)
EGDSLRYYYEN | IKNNRPS | SSRDDSGFQVF | nd nd nd | 3 of 9 (3.72)
EGDSLRYYYAN | GKNNRCS | SSRDSSGFQVT | 3.53 3.65 3.99 | 2 of 9 (3.95)
EGDSLWYYYAN | GKNNQPS | SSRDSSGFQAF | nd 2.48 3.07 | 3 of 9 (3.73)
EGDSLRYYYAN | GKNHNPS | SYRDSSGFQVF | nd nd nd | 0 of 9
EGDSLRYYYAN | GMNNRPY | SSVDSSGFQVF | 2.60 2.67 3.49 | 1 of 9 (2.91)
EGDSLRYYYAN | PKNNRPS | SSRDSPGFQLF | 4.53 3.53 nd | 5 of 9 (4.08)
ENPSLRYYYAG | GKNNRPS | SSRDSSGFQVF | nd nd nd | 3 of 9 (4.22)
EGDSLRVYYAN | VKNNRPA | SSRDSSGFQVF | 3.93 4.79 nd | 5 of 9 (3.72)
EGDSHRYYYAN | GKNNRPS | SPRDSSVFQVF | nd nd nd | 2 of 9 (2.92)
EGDSLRYYRAN | GKNNRPS | SSRDHSGFQVF | nd 3.30 nd | 0 of 9
EGDSIRYYYAN | GKNNRPS | SSHDSSGFQKF | 2.47 3.58 3.60 | 3 of 9 (4.09)
EGDSLRYYYAC | GKNNRPS | SSRDSRGFQVI | 2.75 2.78 3.99 | 1 of 9 (4.11)
EGDSLRYYYAN | GKNNRPS | SSRDVSGFQVF | 2.21 2.07 2.07 | 5 of 9 (4.09)
EGDSLDYYVAN | GKNNRAS | SSRDSSGFQVF | 3.50 3.37 3.73 | 4 of 9 (3.48)
EGDSLRYTYAN | GKNNRPS | STRDSPGFQVF | 1.91 1.94 1.90 | 4 of 9 (4.22)
EGDSLRFYYAS | GKNNRPS | SSMDSSGFQVF | nd nd 3.58 | 2 of 9 (3.70)
EGDSLRYNYAG | GKNNRPS | HSRDSSGFQVF | 3.31 3.75 3.48 | 3 of 9 (5.03)
EGDQLRYYNAN | GINNRPS | SSRDSSGFQVF | 2.63 3.13 2.13 | 4 of 9 (3.80)
EGWSLRYYNAN | GKNNRPS | SSRDSSWFQVF | 2.78 2.84 2.14 | 4 of 9 (4.25)
EGDSLRYYYAN | GKGNRPS | SSRDSSGEQVF | 2.71 2.31 3.25 | 2 of 9 (3.81)
EGDSLRYYYVN | GKNNRPS | SQRDSSGHQVF | 2.27 2.99 2.07 | 3 of 9 (3.99)
EGDDLRYYYAN | VKNNRPC | SSRDSSGFQVF | 4.11 4.87 nd | 1 of 9 (3.87)
EGDSLRYYYAN | GKNKRPS | QSRDSSLFQVF | nd nd 3.56 | 2 of 9 (4.00)
EYDSLRQYYAN | GKNNRPS | SSRDSSQFQVF | nd 4.09 nd | 4 of 9 (3.69)
EGDSLRYKYNN | GKNNRPS | SSRDSSGFFVF | 3.35 3.53 3.12 | 4 of 9 (3.45)
EGDSQRYYYAN | KKNGRPS | SSRDSSGFQVF | 4.22 nd 3.86 | 3 of 9 (4.69)

Excerpt, the final 2 entries:

CDR-L1,CDR-L2,CDR-L3,"log10 Kd, replicates",signal with controls
EGDSLRYKYNN,GKNNRPS,SSRDSSGFFVF,3.35 3.53 3.12,4 of 9 (3.45)
EGDSQRYYYAN,KKNGRPS,SSRDSSGFQVF,4.22 nd 3.86,3 of 9 (4.69)